Columns and labels:
[1] = target: β-secretase II (BACE2) (Homo sapiens, UniProt Q9Y5Z0); experiment: Biochemical assay, automated (CyclOps), BACE2; conditions: automated CyclOps bioassay
Method: (§1) Unless otherwise indicated all biochemicals were purchased from Sigma-Aldrich Chemical Company, Poole, Dorset, U.K. and non-aqueous solvents, of analytical or higher grade, were purchased from ThermoFisher Scientific, Loughborough, U.K. MilliQ water (Elix 5 & MilliQ Gradient; Merck Millipore) was used as the base aqueous solvent to make up the biological buffers. Base assay buffer was prepared by adding a 50 mM solution of citric acid (1.00244; Merck Biosciences) to stirring solution of 50 mM trisodium citrate (1.06448; Merck Biosciences) until a final pH of 5.0 was achieved. […] All assays were routinely carried out in 384-well assay plates (Costar 4514; Corning Life Sciences) and incubated at 37±1° C. for 60 min. prior to reading the endpoint fluorescence intensity. The (7-methoxyl coumarin-4-yl)acetic acid based substrate β-secretase substrate VI (M2465; Bachem) was prepared as a 1 mM stock in 100% DMSO (D/4121/PB08; ThermoFisher). Assay buffer was prepared by adding DMSO to base buffer to a final concentration of 1% (vol./vol.). β-secretase I (18.64 μM; “BACE1”) and β-secretase II (4.65 μM; “BACE2”) were obtained from Janssen Pharmaceutica, Beerse, Belgium and were stored as frozen aliquots (˜20 μl) and thawed as required.
(§2) Typically 12.5 μl of assay buffer was dispensed to rows B to P of the assay plate. To row A was added 18.75 μl of test compound diluted appropriately in assay buffer. A 6.25 μl aliquot of sample was transferred from row A to row B and the sample mixed three times by pipette. The process was repeated down the plate and 6.25 μl of solution discarded at row N post-mix. Rows O and P were designated as the positive and negative controls. To row P was added 6.25 μl base buffer. To rows A to O was added 6.25 μl enzyme (freshly prepared 40 nM BACE1 or 40 nM BACE2) diluted in base buffer. To initiate the assay 6.25 μl of freshly prepared 80 μM substrate, made up by diluting the 1 mM in 100% DMSO solution into HPLC grade water (Optima W6-212; ThermoFisher), was added to all the wells. The assay plate was covered and incubated at 37±1° C. for 60 min. The fluorescence intensity of the wells was read at 360/405 nm (excitation/emission) utilising a nine reads per well protocol (50 ms integration; density of 3, 0.25 mm spacing; SpectraMAX Paradigm plate reader; TUNE cartridge; SoftMax Pro v 6.3 software; Molecular Devices UK Ltd., Wokingham, Berkshire, UK) and outputting the median value of the nine reads as a text file. Data analysis was carried out using Prism software v 6.3 (GraphPad Inc., San Diego, Calif., USA) using the non-linear regression analysis models supplied by the vendor. For IC50 determinations the four parameter logistic variable slope model was used to fit the raw fluorescence intensity data with the ‘bottom’ fixed to the negative control.
(§3) The CyclOps bioassay module consisted of a fraction collection station, a reagent station, liquid handling robotics, plate store and an integrated plate reader (SpectraMAX Paradigm, TUNE cartridge, SoftMax Pro v 6.3; Molecular Devices). The fraction collection station composed of a 384 well collection plate (P-384-240SQ-C; Axygen, Union City, Calif., USA) mounted on a H-portal carriage (Festo AG & Co. KG, Esslingen, Germany), a syringe drive and a two-way six port injection valve fitted with a 200 μl loop (VICI AG International, Schenkon Switzerland). The output of the injection valve was addressable to all the positions of a 384 well collection plate. The reagent station consisted of hydraulically cooled (10-12° C.) aluminium segments; each manufactured to house a SBS microtiter plate footprint. Independent addressable reagent stations were housed within these sections. Where required, custom aluminium housings were used to accommodate standard laboratory plastic ware (e.g. Eppendorf tubes, Falcon tubes, etc.). As and when required the reagent reservoirs were covered and the lids contained holes through which the Teflon-coated probe could access solutions. […]

Chains of the proteins cited; added tags and fusions are not shown. Residues count along the entry.
UniProt Q9Y5Z0, 63-518 limits assumed: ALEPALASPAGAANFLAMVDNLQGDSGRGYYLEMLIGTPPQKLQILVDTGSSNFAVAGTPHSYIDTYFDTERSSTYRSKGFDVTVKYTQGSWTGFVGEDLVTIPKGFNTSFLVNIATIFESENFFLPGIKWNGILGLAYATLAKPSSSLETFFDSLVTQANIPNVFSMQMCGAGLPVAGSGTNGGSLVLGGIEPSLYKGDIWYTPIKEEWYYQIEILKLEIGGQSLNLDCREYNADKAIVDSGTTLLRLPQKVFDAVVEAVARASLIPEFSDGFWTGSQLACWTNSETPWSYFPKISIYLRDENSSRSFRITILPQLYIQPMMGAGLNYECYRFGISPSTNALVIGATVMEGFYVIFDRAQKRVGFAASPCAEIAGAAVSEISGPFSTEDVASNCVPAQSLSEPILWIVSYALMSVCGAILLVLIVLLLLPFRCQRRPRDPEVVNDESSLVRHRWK
UniProt P56817, 46-501 limits assumed: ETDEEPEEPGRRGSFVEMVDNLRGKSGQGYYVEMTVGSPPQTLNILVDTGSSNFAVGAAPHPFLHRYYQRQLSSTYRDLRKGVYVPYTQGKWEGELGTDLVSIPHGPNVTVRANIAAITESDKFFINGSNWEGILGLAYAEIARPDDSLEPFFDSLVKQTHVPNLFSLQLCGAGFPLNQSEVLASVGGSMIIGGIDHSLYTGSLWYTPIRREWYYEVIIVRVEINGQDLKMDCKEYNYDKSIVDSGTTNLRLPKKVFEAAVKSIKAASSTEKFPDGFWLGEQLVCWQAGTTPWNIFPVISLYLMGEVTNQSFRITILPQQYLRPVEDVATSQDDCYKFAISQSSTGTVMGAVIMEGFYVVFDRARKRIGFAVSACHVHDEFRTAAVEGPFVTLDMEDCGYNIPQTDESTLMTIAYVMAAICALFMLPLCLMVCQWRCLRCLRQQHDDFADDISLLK

[2] = target: β-secretase I (BACE1) (Homo sapiens, UniProt P56817); experiment: Biochemical assay, automated (CyclOps), BACE1; conditions: automated CyclOps bioassay
Method: as §1, §2, §3

SMILES	AUTOMATED ASSAY BACE2 pIC50 [1]	AUTOMATED ASSAY BACE1 pIC50 [2]	AUTOMATED ASSAY BACE2 pIC50 ([1]; tested form: free base)	AUTOMATED ASSAY BACE1 pIC50 ([2]; tested form: free base)
CCn1ccnc1COc1ccc(F)c([C@]23Cc4c(OC)ncc(-c5ccccc5F)c4C[C@H]2CSC(N)=N3)c1	7.2	7.29	–	–
COc1ccc(F)cc1-c1cnc(OC)c2c1C[C@H]1CSC(N)=N[C@@]1(c1cc(OCc3ccccc3C)ccc1F)C2	–	–	5.52	5.52
COc1ncc(-c2ccccc2CC#N)c2c1C[C@]1(c3ccc(F)cc3F)N=C(N)SC[C@@H]1C2	6.75	7.85	–	–
COc1ccc(-c2cnc(OC)c3c2C[C@H]2CSC(N)=N[C@@]2(c2ccc(F)cc2F)C3)c(F)c1	7.29	7.84	–	–
COc1ncc(-c2c(C)noc2C)c2c1C[C@]1(c3cc(OCc4ccccn4)ccc3F)N=C(N)SC[C@@H]1C2	5.96	6.85	–	–
COc1cc(-c2cnc(OC)c3c2C[C@H]2CSC(N)=N[C@@]2(c2ccc(F)cc2F)C3)cc(C(F)(F)F)c1	6.72	7.52	–	–
COc1ccc(-c2cnc(OC)c3c2C[C@H]2CSC(N)=N[C@@]2(c2cc(OCc4cccnc4)ccc2F)C3)c(C)c1	6.61	7.62	–	–
COc1ncc(-c2ccccc2C)c2c1C[C@]1(c3cc(OCCOc4ccc(F)cc4)ccc3F)N=C(N)SC[C@@H]1C2	6.13	7.1	–	–
CNc1ccc(-c2cnc(OC)c3c2C[C@H]2CSC(N)=N[C@@]2(c2ccc(F)cc2F)C3)cc1O	8.51	8.28	–	–
COc1ccc(-c2cnc(OC)c3c2C[C@H]2CSC(N)=N[C@@]2(c2cc(OCc4csc(C)n4)ccc2F)C3)c(F)c1	7.16	7.33	–	–
COc1ncc(-c2ccccc2C)c2c1C[C@]1(c3cc(OCc4c(C)noc4C)ccc3F)N=C(N)SC[C@@H]1C2	6.29	7.37	–	–
COc1ncc(-c2ccc(F)cc2C)c2c1C[C@]1(c3cc(OCc4ccnc(C)c4)ccc3F)N=C(N)SC[C@@H]1C2	7.49	8.22	–	–
COc1ncc(-c2ccnc(C)c2)c2c1C[C@]1(c3cc(OCc4ccccn4)ccc3F)N=C(N)SC[C@@H]1C2	7.6	7.21	–	–
COc1ncc(-c2ccc(N3CCOCC3)c(F)c2)c2c1C[C@]1(c3ccc(F)cc3F)N=C(N)SC[C@@H]1C2	8.33	8.44	–	–
COc1ncc(-c2c(C)nn(C3CCCCO3)c2C)c2c1C[C@]1(c3ccc(F)cc3F)N=C(N)SC[C@@H]1C2 (single isomer, unassigned) [116]	6.28	7.6	–	–
COc1ncc(-c2ccc(C)cc2-n2nc(C)cc2C)c2c1C[C@]1(c3ccc(F)cc3F)N=C(N)SC[C@@H]1C2	6.17	6.77	–	–
COc1ncc(-c2c(C)nn(C3CCCCO3)c2C)c2c1C[C@]1(c3ccc(F)cc3F)N=C(N)SC[C@@H]1C2 (single isomer, unassigned) [117]	6.34	7.68	–	–
COc1ncc(-c2cn(C)c3ccccc23)c2c1C[C@]1(c3ccc(F)cc3F)N=C(N)SC[C@@H]1C2	7.18	8.05	–	–
COc1ncc(-c2c(C)noc2C)c2c1C[C@]1(c3cc(OCC4CCCCC4)ccc3F)N=C(N)SC[C@@H]1C2	5.34	6.53	–	–
COc1ncc(-c2c(C)noc2C)c2c1C[C@]1(c3cc(OCc4nn(C)c5ccccc45)ccc3F)N=C(N)SC[C@@H]1C2	5.6	6.88	–	–
COc1cccc(OC)c1-c1cnc(OC)c2c1C[C@H]1CSC(N)=N[C@@]1(c1ccc(F)cc1F)C2	5.66	6.41	–	–

SMILES	AUTOMATED ASSAY BACE2 pIC50 [1]	AUTOMATED ASSAY BACE1 pIC50 [2]	AUTOMATED ASSAY BACE2 pIC50 ([1]; tested form: free base)	AUTOMATED ASSAY BACE1 pIC50 ([2]; tested form: free base)
COc1ccccc1-c1cnc(OC)c2c1C[C@H]1CSC(N)=N[C@@]1(c1cc(OCC3CCOCC3)ccc1F)C2	4.86	6.47	–	–
COc1ccc(C(C)C)cc1-c1cnc(OC)c2c1C[C@H]1CSC(N)=N[C@@]1(c1ccc(F)cc1F)C2	5.47	6.55	–	–
COc1ncc(-c2ccc(N3CCCC3)nc2)c2c1C[C@]1(c3ccc(F)cc3F)N=C(N)SC[C@@H]1C2	7.6	7.96	–	–
COc1ccc(-c2cnc(OC)c3c2C[C@H]2CSC(N)=N[C@@]2(c2ccc(F)cc2F)C3)c(C)c1	8.08	8.77	–	–
COc1nc(-c2cnc(OC)c3c2C[C@H]2CSC(N)=N[C@@]2(c2ccc(F)cc2F)C3)ccc1-n1cnc(C)c1	7.38	7.66	–	–
COc1ncc(-c2cccs2)c2c1C[C@]1(c3ccc(F)cc3F)N=C(N)SC[C@@H]1C2	8.92	8.41	–	–
COc1ncc(-c2c(C)noc2C)c2c1C[C@]1(c3cc(OCC(C)C)ccc3F)N=C(N)SC[C@@H]1C2	7.03	7.77	–	–
COc1ccc(-c2cnc(OC)c3c2C[C@H]2CSC(N)=N[C@@]2(c2cc(OCc4nccn4C)ccc2F)C3)c(C)c1	6.79	7.54	–	–
COc1ccc(-c2cnc(OC)c3c2C[C@H]2CSC(N)=N[C@@]2(c2cc(OCC4CCOCC4)ccc2F)C3)c(F)c1	6.84	8.05	–	–
COc1ncc(-c2ccccc2Oc2ccccc2)c2c1C[C@]1(c3ccc(F)cc3F)N=C(N)SC[C@@H]1C2	6.06	6.59	–	–
CC#CCOc1ccc(F)c([C@]23Cc4c(OC)ncc(-c5ccccc5OC)c4C[C@H]2CSC(N)=N3)c1	4.82	5.39	–	–
COc1ncc(-c2cnc3c(c2)CCCC3)c2c1C[C@]1(c3ccc(F)cc3F)N=C(N)SC[C@@H]1C2	7.3	7.62	–	–
CCOCCOc1ccc(F)c([C@]23Cc4c(OC)ncc(-c5ccccc5F)c4C[C@H]2CSC(N)=N3)c1	7.54	7.6	–	–
COc1ncc(-c2cccc3c2ccn3C)c2c1C[C@]1(c3ccc(F)cc3F)N=C(N)SC[C@@H]1C2	–	–	6.59	7.13
COc1ncc(-c2cccc3cnn(C)c23)c2c1C[C@]1(c3ccc(F)cc3F)N=C(N)SC[C@@H]1C2 [Compound 127]	5.57	6.84	–	–
COc1ncccc1-c1cnc(OC)c2c1C[C@H]1CSC(N)=N[C@@]1(c1ccc(F)cc1F)C2	6.41	7.2	–	–
COc1ncc(-c2cc(N3CCCC3)ccn2)c2c1C[C@]1(c3ccc(F)cc3F)N=C(N)SC[C@@H]1C2	7.31	7.68	–	–
COc1ccc(-c2cnc(OC)c3c2C[C@H]2CSC(N)=N[C@@]2(c2cc(OCc4cc(C)on4)ccc2F)C3)c(C)c1	8.22	8.3	–	–
COc1ccc(-c2cnc(OC)c3c2C[C@H]2CSC(N)=N[C@@]2(c2cc(OCC4CCOCC4)ccc2F)C3)c(C)c1	6.56	9	–	–
COc1ncc(-c2ccc(F)cc2C)c2c1C[C@]1(c3cc(OCc4ccccn4)ccc3F)N=C(N)SC[C@@H]1C2	8.4	9	–	–

Reference: US20200010482A1, “INHIBITORS OF BETA SECRETASE” (Janssen Pharmaceutica NV, priority 2017, published 2020)
